In US20100080817A1:

Tests used:
[1] = target: HLA-DR4 molecules on HLA-DR4+ human lymphoma cells (H9 cells) (human); experiment: flow cytometry on HLA-DR4+ H9 cells, anti-HA mAb + FITC secondary; peptide at 100 nmole; no peptide 1.83%
[2] = target: HLA-DR4 molecules on HLA-DR4+ human lymphoma cells (H9 cells) (human); experiment: flow cytometry on HLA-DR4+ H9 cells, anti-HA mAb + FITC secondary; peptide at 1 nmole; no peptide 1.83%
[3] = target: HLA-DR4 molecules on HLA-DR4+ human lymphoma cells (H9 cells) (human); experiment: flow cytometry on HLA-DR4+ H9 cells, anti-HA mAb + FITC secondary; peptide at 25 nmole; no peptide 1.83%
[4] = target: HLA-DR4 molecules on HLA-DR4+ human lymphoma cells (H9 cells) (human); experiment: flow cytometry on HLA-DR4+ H9 cells, anti-HA mAb + FITC secondary; peptide at 50 nmole; no peptide 1.83%
[5] = target: HLA-DR4 molecules on HLA-DR4+ human lymphoma cells (H9 cells) (human); experiment: flow cytometry on HLA-DR4+ H9 cells, anti-HA mAb + FITC secondary; peptide at 10 nmole; no peptide 1.83%

In the case of “HPV7 (HPV1-HA tagged peptide: HPV16 E7 (8-22) epitope-only peptide extended at the C-terminus with a two-glycine spacer and an HA tag)”, the percentage of positive gated cells [1] is reported as 39.5%, the percentage of positive gated cells [2] is reported as 3.88% and the percentage of positive gated cells [3] is reported as 12.2%. For the same substance, the percentage of positive gated cells [4] was 25.6% and the percentage of positive gated cells [5] was 7.42%.
